Here are results for one compound from patent US9611503B2, “Escherichia coli cell line with thyA knockout and folA knockout” (priority 2011, dated 2017).

By UniProt entry, the sequences of proteins in these tests, tags left out. Where a name states a change or a piece, a line headed by the entry shows the natural chain unless it says otherwise.
UniProt Q27783: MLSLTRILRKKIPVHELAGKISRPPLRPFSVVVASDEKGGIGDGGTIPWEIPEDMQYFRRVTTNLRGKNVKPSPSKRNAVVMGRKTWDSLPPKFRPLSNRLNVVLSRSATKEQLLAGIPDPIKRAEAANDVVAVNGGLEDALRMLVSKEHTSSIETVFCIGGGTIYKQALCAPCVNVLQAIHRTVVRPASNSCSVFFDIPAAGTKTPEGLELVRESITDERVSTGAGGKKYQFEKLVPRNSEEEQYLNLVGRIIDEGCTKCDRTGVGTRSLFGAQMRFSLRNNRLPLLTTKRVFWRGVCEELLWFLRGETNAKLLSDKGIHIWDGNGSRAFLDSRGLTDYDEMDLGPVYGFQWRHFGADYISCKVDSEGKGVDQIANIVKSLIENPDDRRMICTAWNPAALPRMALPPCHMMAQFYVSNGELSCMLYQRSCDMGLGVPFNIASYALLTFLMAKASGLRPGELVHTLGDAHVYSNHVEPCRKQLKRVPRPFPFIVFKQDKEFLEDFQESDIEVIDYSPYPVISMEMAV
UniProt P07382: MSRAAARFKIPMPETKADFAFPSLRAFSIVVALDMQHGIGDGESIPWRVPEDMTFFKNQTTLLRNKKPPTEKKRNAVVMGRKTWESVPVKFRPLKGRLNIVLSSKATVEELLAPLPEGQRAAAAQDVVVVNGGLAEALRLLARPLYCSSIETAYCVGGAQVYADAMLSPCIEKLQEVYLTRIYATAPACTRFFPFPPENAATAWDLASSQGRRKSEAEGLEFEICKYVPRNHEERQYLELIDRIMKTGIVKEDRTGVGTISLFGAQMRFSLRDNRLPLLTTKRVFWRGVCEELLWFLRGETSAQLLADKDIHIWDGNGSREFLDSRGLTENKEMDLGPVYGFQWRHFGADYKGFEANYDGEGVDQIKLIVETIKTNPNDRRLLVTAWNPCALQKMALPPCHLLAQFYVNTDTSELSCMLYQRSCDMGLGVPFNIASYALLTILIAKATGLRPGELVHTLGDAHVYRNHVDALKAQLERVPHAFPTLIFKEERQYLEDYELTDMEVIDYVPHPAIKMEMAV

In assay [1] the target is T1, DHFR-TS from Trypanosoma brucei (wildtype) (Trypanosoma brucei brucei, UniProt Q27783).
T1 construct: made in house; host or cells: E. coli
Kind of assay: In vitro biochemical enzyme inhibition assay, purified DHFR-TS.

Assay [2] addresses T2, DHFR-TS from Leishmania major (Leishmania major, UniProt P07382).
T2 construct: made in house; host or cells: E. coli
Described as above.

Regarding `CCc1nc(N)nc(N)c1-c1ccc(Cl)cc1` [Pyrimethamine], the Ki in assay [1] is 14.6 ± 0.59 nM; in assay [2], 200 ± 59 nM.

The Ki is the equilibrium dissociation constant of an inhibitor or competing ligand from its target. Higher therefore signals weaker binding.
